Test results published in patent US12448375B2, “Kinase inhibitors for the treatment of neurodegenerative diseases” (Ohio State Innovation Foundation, priority 2019, dated 2025).

Amino acid sequences for entries named in this document (tags omitted).
UniProt P53779, whole entry: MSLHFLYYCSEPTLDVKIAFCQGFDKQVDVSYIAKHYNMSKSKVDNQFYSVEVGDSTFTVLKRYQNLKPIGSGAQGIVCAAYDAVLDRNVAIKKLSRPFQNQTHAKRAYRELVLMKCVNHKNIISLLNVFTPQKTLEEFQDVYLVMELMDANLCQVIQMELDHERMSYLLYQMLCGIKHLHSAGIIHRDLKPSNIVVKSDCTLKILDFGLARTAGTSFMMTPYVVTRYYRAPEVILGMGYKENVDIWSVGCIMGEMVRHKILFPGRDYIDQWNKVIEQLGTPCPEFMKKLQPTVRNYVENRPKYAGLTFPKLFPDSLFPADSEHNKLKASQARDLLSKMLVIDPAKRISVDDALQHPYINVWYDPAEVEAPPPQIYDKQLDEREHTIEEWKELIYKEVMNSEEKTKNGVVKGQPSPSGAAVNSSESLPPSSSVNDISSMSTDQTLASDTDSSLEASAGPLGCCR
UniProt P45983, whole entry: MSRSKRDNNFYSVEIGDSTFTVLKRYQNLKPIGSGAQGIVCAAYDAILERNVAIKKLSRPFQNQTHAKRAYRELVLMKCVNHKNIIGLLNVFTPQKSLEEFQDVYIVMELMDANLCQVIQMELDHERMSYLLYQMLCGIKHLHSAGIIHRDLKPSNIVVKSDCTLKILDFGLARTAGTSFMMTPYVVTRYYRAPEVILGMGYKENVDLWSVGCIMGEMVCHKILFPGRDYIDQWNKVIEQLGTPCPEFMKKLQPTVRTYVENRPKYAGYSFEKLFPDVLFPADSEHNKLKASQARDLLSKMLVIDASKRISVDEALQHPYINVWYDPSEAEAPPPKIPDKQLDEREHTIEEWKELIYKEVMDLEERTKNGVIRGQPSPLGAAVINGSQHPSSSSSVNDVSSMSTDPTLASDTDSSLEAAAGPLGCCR
UniProt Q16539, whole entry: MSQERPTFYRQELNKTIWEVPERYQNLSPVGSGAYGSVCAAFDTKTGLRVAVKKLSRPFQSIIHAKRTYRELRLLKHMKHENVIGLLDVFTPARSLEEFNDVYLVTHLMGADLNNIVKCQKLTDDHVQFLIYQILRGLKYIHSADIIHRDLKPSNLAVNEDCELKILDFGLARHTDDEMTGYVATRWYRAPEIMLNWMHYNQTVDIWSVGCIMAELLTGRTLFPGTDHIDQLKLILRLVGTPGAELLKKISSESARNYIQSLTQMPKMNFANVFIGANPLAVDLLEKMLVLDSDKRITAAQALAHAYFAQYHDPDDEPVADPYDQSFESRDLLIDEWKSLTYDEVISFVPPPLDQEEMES

Legend:
[1] = target: JNK3 (Homo sapiens, UniProt P53779); test: HotSpot Kinase Assay (Reaction Biology Corp.), anti-JNK3 activity; conditions: read-out: JNK3; HotSpot radiometric assay, 33P-ATP
[2] = target: JNK1 (Homo sapiens, UniProt P45983); test: HotSpot Kinase Assay, JNK1; conditions: read-out: JNK1; HotSpot radiometric assay, 33P-ATP
[3] = target: p38a (Homo sapiens, UniProt Q16539); test: HotSpot Kinase Assay, P38a; conditions: read-out: p38a; HotSpot radiometric assay, 33P-ATP

Q: How did the IC50 [1] turn out when CNC(=O)c1cc(-n2ncc3cc(Nc4ccccc4Cl)c(OC)cc32)cs1 was run?
A: < 200 nM

Q: What about the IC50 [2] of the same compound?
A: > 1000 nM

Q: What about the IC50 [3] of the same compound?
A: 200 to 1000 nM
